Measurements from article PMC11992111 (Nature Communications, 2025).
Substitutions are numbered along the chain they refer to.

Experiments:
Format in all cases: binding
AZG1 = AZG1 (Arabidopsis thaliana, UniProt Q9SRK7); experiment: ITC at pH […]
AZG2 [1] = target: T1, AZG2 (Arabidopsis thaliana, UniProt Q84MA8); experiment: ITC at pH […]
T1 sequence (Q84MA8 1-530): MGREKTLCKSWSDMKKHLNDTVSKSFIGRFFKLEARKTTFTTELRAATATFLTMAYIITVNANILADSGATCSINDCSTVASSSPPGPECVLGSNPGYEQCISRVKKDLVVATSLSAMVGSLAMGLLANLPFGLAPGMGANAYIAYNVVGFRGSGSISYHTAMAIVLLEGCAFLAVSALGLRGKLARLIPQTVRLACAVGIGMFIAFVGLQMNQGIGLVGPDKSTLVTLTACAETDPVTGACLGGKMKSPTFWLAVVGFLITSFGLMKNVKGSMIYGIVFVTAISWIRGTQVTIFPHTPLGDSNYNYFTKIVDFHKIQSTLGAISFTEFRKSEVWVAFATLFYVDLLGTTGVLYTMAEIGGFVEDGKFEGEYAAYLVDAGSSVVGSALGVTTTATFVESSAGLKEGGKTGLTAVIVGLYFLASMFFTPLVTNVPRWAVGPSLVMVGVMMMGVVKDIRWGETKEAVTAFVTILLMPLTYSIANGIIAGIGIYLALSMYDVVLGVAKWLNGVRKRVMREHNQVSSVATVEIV

AZG2 [2] = target: T2, AZG2 (Arabidopsis thaliana, UniProt Q84MA8, M449A); experiment: ITC
T2 sequence (Q84MA8 1-530 M449A): T1 sequence (Q84MA8 1-530) with M449A

C/C(=C\CNc1ncnc2[nH]cnc12)CO [tZ, trans-zeatin]
Kd (AZG1): 640 ± 100 nM
Kd (AZG2 [1]): 390 ± 90 nM
Kd (AZG2 [2]): M449A, which residue is not directly involved in substrate binding, had a comparable binding affinity to the WT protein
